Assay results published in patent US8835440B2, “Cyclic pyrimidin-4-carboxamides as CCR2 receptor antagonists for treatment of inflammation, asthma and COPD” (Boehringer Ingelheim International GmbH, priority 2008, dated 2014).

Protein sequences, listed by entry. Tags and fused reporters are not part of them. Residues count along the entry.
UniProt P41597, 1-360 isoform 2: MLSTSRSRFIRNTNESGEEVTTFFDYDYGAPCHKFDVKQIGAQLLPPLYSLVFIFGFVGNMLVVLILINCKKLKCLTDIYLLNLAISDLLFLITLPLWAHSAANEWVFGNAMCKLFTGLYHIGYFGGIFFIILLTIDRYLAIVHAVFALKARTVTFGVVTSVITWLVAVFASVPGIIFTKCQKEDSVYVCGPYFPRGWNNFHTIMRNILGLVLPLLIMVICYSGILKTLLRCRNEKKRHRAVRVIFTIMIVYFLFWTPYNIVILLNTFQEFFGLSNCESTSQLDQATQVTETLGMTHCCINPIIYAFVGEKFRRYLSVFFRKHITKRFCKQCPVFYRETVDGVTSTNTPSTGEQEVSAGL

Molecular target: CCR2 (Homo sapiens, UniProt P41597)
Test: CCR2 receptor membrane binding assay ([125I]MCP-1, THP-1 cell membranes, SPA beads)
Details: read-out: hKi; dissociation constant hKi; [125I]MCP-1 binding to THP-1 membranes

| Structure (SMILES) | Ki |
| --- | --- |
| Cc1c(NCC2CCCC(c3ccccc3)C2)ncnc1C(=O)N1CCC(N2CCC(NS(C)(=O)=O)CC2)CC1 (centres unmarked) | 9 nM |
| COCCn1ncc2c1CN(C1CCN(C(=O)c3ncnc(NCc4ccc(C(C)(C)C)cc4)c3C)CC1)CC2 | 3830 nM |
